Test system: Mus musculus
Assay: Antinociceptive activity in sc dosed mouse by hot plate method
Type: functional

SMILES: C=CCN1CC[C@]23c4c5ccc(O)c4O[C@H]2[C@@H](O)C=C[C@H]3[C@H]1C5
- ED50: 9.9 mg/kg
